Converted amounts (≈) assume the structure as drawn.
Columns and labels:
S. aureus ATCC 6538 = assay: Antimicrobial assay MIC/MBC; assay type: cell-based; conditions: MH broth, 37°C, 20 hours
Description: (§1) The minimum inhibitory concentration (MIC) was determined by a liquid test in 96-well microplates as previously described. 100 µL of the sample to be tested was distributed in triplicate to obtain a range of final concentrations from 100 to 0.2 µM in the wells. 90 µL of bacterial suspension (5 × 10^5 CFU/mL for Gram-negative bacteria and 5 × 10^5 CFU/mL for Gram-positive strains in Mueller–Hinton broth) were added to each well [14]. The microtiter plates were incubated at 37°C overnight. The optical density of the wells was measured at […], and the results were interpreted by calculating the percentage of growth in each well according to the formula: % growth = (OD600 well − OD600 T0)/(OD600 of T100 − OD600 T0) ∗ 100, where OD600 T100 = DO600 growth control (bacterial suspension without the test sample, 100% growth), OD600 T0 = OD600 of sterility control (culture medium + […] 10 µL formaldehyde, 0% growth) well, and OD600 = OD600 of the well which was desired to calculate the percentage of growth (+ bacterial suspension test sample). MIC is the minimum concentration of the peptide that inhibits bacterial growth after incubation at 37°C for 20 hours.
(§2) The minimum bactericidal concentration (MBC) is defined as the minimum concentration of the peptide killing 99.9% of bacteria after incubation at 37°C for 20 hours. […]

P. aeruginosa ATCC 27853 = assay: Antimicrobial assay MIC/MBC; assay type: cell-based; conditions: MH broth, 37°C, 20 hours
Description: as §1, §2

`CC[C@H](C)[C@H](NC(=O)CN)C(=O)NCC(=O)N[C@@H](C)C(=O)N[C@H](C(=O)N[C@@H](CC(C)C)C(=O)N[C@@H](CCCCN)C(=O)N[C@H](C(=O)N[C@@H](CC(C)C)C(=O)N[C@H](C(=O)N[C@H](C(=O)NCC(=O)N[C@@H](CC(C)C)C(=O)N1CCC[C@H]1C(=O)N[C@@H](C)C(=O)N[C@@H](CC(C)C)C(=O)N[C@H](C(=O)N[C@@H](CO)C(=O)N[C@@H](Cc1c[nH]c2ccccc12)C(=O)N[C@H](C(=O)N[C@@H](CCCCN)C(=O)N[C@@H](CCCNC(=N)N)C(=O)N[C@@H](CCCCN)C(=O)N[C@@H](CCCNC(=N)N)C(=O)N[C@@H](CCC(N)=O)C(=O)N[C@@H](CCC(N)=O)C(N)=O)[C@@H](C)CC)[C@@H](C)CC)[C@@H](C)O)[C@@H](C)O)C(C)C)C(C)C` [Melittin, melittin] was tested, and the MIC (S. aureus ATCC 6538) was 0.0063 nM (≈ 0.0179 ng/mL) and the MIC (P. aeruginosa ATCC 27853) was 0.05 nM (≈ 0.142 ng/mL).

— article PMC10799709, “Characterization of a New Immunosuppressive and Antimicrobial Peptide, DRS-DA2, Isolated from the Mexican Frog, Pachymedusa dacnicolor” (International Journal of Inflammation, 2024)
